This is an account of results in patent publication US6358936B2, “Compounds for the treatment of cancer” (Ardenia Investments, Ltd., priority 1998, dated 2002).

One experiment has as its system EAC cells. Nature of the experiment: Antitumor effect of compound 1 and doxorubicin on EAC in C3H mice (Example 20). The class given is in vivo. As to conditions: dose 50 μg/mouse i.v. (doxorubicin equivalent, 2.5 mg/kg), days 2, 4, 6, day 9, listed as free doxorubicin. Here is the method:
A study of the anti-tumour effect of compound 1 as compared with doxorubicin was carried out in EAC, passed in C3H mice. 20-22 g males of C3H mice were used. Control and experimental groups included 7 animals, which were inoculated 5×10^6 EAC cells i.p. in volume 0.2 ml at day 0. On second, fourth and sixth days following inoculation the doses of 20, 50 and 100 μg/mouse of compound 1, equivalent ones of doxorubicin, in 200 μl of normal mice serum (NMS) were injected i.v. Three groups of animals were administrated water solutions of doxorubicin in doses^—of 1, 2.5 and 5 μg/kg of body weight (20, 50 and 100 μg/mouse by weight of 20 g accordingly). One group of mice was untreated control. Results of experiment were accounted on ninth day. Mice were killed by cervical dislocation. Ascitic fluids were removed, collected, their volumes were measured, and abdominal cavities were washed by saline solution 6-7 times. Thus obtained fluids were pooled. The number of viable tumor cells was counted by hemocytometer, using trypan blue exclusion test. The mean and the standard mean error was calculated for each group of mice. Comparison of tumor cell number in control and experimental groups was carried out using Student t-test. Influence of tested preparation on EAC growth inhibition was evaluated by: [formula]

Another experiment deals with EAC. The note with it: doxorubicin dose 2.5 mg/kg i.v. in NMS, days 2, 4, 6; day 9.

Take `COc1cccc2c1C(=O)c1c(O)c3c(c(O)c1C2=O)C[C@@](O)(C(=O)CO)C[C@@H]3O[C@H]1C[C@H](N)[C@H](O)[C@H](C)O1` [DXR, doxorubicin, reference compound]: the “EAC growth inhibition, % to control” value in the experiment with EAC cells is recorded as 45%. The molecule further had an EAC growth inhibition with EAC of 44.9%.
